# Assay results from EP4631940A1, “COMPOUND TARGETING PAN-KRAS PROTEIN DEGRADATION AGENT AND USE THEREOF” (Betta Pharmaceuticals Co., Ltd., priority 2022, dated 2024).
# Only a part of the results on these compounds is given; other tests are left out.
# Legend:
# AGS = assay: Cell proliferation experiment (CellTiter-Glo); type: cell-based; conditions: read-out: IC50(nM) AGS, KRAS mutation type G12D, 96 h incubation
# KRAS G12D = KRAS G12D (Homo sapiens, UniProt P01116, G12D); assay: In-Cell Western Blotting degradation experiment in AGS cell line; conditions: KRAS^G12D vs GAPDH
Substance,IC50 (AGS),DC50 (KRAS G12D),Dmax (%) (KRAS G12D)
"(2S,4R)-1-((S)-2-(4-(1-((1-((1-(((7-(8-ethyl-7-fluoro-3-hydroxynaphthalen-1-yl)-8-fluoro-4-((R)-3-hydroxy-3-methylpiperidin-1-yl)pyrido[4,3-d]pyrimidin-2-yl)oxy)methyl)cyclopropyl)methyl) piperidin-4-yl)methyl)piperidin-4-yl)-1H-1,2,3-triazol-1-yl)-3-methylbutanoyl)-4-hydroxy-N-((S )-1-(4-(4-methylthiazol-5-yl)phenyl)ethyl)pyrrolidine-2-carboxamide",17 nM,–,–
"(2S,4R)-1-((S)-2-(4-((1-((1-(((7-(8-ethyl-7-fluoro-3-hydroxynaphthalen-1-yl)-8-fluoro-4-((R)-3-hydroxy-3-methylpiperidin-1-yl)pyrido[4,3-d]pyrimidin-2-yl)oxy)methyl)cyclopropyl)methyl)pi peridin-4-yl)azetidin-3-yl)-1H-1,2,3-triazol-1-yl)-3-methylbutanoyl)-4-hydroxy-N-((S)-1-(4-(4-methylthiazol-5-yl)phenyl)ethyl)pyrrolidine-2-carboxamide",33 nM,84 nM,95%
